Reference: US12251382B2, “Substituted amino-pyrimidine compound for use in a method for treatment and prevention of multiple sclerosis” (Merck Patent GmbH, priority 2018, dated 2025)

How the values were obtained:
[1] = Phase I Part 2: plasma pharmacokinetics Day 1 and Day 14 of once daily dosing; assay type: in vivo, human; conditions: median
Description: (§1) PK analysis was performed in all subjects who received at least one dose of evobrutinib and had at least one primary PK parameter evaluable by non-compartmental methods using PHOENIX® WINNONLIN® Version 6.3 (Certara LP, Princeton, N.J., US). Serial blood samples were obtained on Day 1 pre-dose and 0.25, 0.5, 1.0, 1.5, 2, 2.5, 3, 4, 5, 6, 8, 12, 16, 24 (Day 2), 36 (Day 2), and 48 h (Day 3) post-dose during Part 1, and used to prepare plasma samples for evobrutinib PK analysis. A similar sampling schedule was undertaken in Part 2 on Days 1 and 14, with additional trough samples obtained on Days 5, 8, 11, as well at Day 17 and 18.
(§2) PK samples were analyzed by Quintiles Bioanalytical and ADME Laboratory (Ithaca, N.Y., USA) using a validated bioanalytical liquid chromatographic assay with tandem mass spectrometric detection (UPLC-MS/MS) to determine evobrutinib concentration; the LLOQ of the assay was 0.1 ng/mL. Plasma evobrutinib concentrations and PK parameters were summarized descriptively. To test dose proportionality, PK parameters were analyzed graphically as AUC/dose and Cmax/dose and via a power model (PK parameter=α*dose^β) approach with log-transformed PK parameters as the dependent variable and log-transformed dose as the independent variable. Accumulation of evobrutinib and time dependency of PK parameters were evaluated for each dose level during Part 2 using a linear mixed-effect analysis of variance for log-transformed PK parameters with a fixed-repeated effect for day and random effect for subject.

[2] = Phase I Part 1: plasma pharmacokinetics after single oral dose; assay type: in vivo, human; conditions: median
Description: as §1, §2

Measured: Tmax

C=CC(=O)N1CCC(CNc2ncnc(N)c2-c2ccc(Oc3ccccc3)cc2)CC1 [Evobrutinib, 1-(4-(((6-amino-5-(4-phenoxyphenyl)pyrimidin-4-yl)amino)methyl)piperidin-1-yl)prop-2-en-1-one]
30 min: [1]; multiple-dose study Day 1, 75 mg | [1]; multiple-dose study Day 1, 200 mg | [1]; multiple-dose study Day 14, 25 mg once daily | [1]; multiple-dose study Day 14, 75 mg once daily | [1]; multiple-dose study Day 14, 200 mg once daily | [2]; single dose 50 mg | [2]; single dose 100 mg | [2]; single dose 200 mg | [2]; single dose 500 mg
